# According to patent publication US9815835B2, “Substituted polycyclic carbamolypyridone derivative” (priority 2009, dated 2017):
# Molecular target: cap-dependent endonuclease (RNP fraction containing PB1•PB2•PA complex) (Influenza A virus, UniProt P15659)
# Assay: biochemical
# Set-up: species or system A/WSN/33 virus
# Settings: CEN IC50
row,SMILES,IC50 [nM]
1,CC(C)N1CN(C2c3ccccc3CSc3c(Cl)cccc32)n2ccc(=O)c(O)c2C1=O (centres unmarked) [Example 326],43
2,O=C1c2c(O)c(=O)ccn2N(C2c3ccccc3CSc3c(Cl)cccc32)CN1[C@@H]1C[C@@H]1F (some centres unmarked) [Example 332],48
3,COCC(COC)N1CN(C2c3cc(F)ccc3CSc3ccc(F)cc32)n2ccc(=O)c(O)c2C1=O (centres unmarked) [Example 340],101
4,CC(N1CN(C2c3ccccc3CSc3c(F)cccc32)n2ccc(=O)c(O)c2C1=O)C(F)(F)F (centres unmarked) [Example 342],99
5,C[C@@H](N1CN(C2c3ccccc3CSc3ccc(F)cc32)n2ccc(=O)c(O)c2C1=O)C(F)(F)F (some centres unmarked) [Example 345],97
6,CC(C)N1CN(C2c3ccccc3CSc3c(F)cccc32)n2ccc(=O)c(O)c2C1=O (centres unmarked) [Example 351],91
7,CN1CN(C2c3ccccc3CSc3c(F)cccc32)n2ccc(=O)c(O)c2C1=O (centres unmarked) [Example 354],25
8,CC(=O)OCCN1CN(C2c3ccccc3CSc3c(Cl)cccc32)n2ccc(=O)c(O)c2C1=O (centres unmarked) [Example 359],37
9,CC(CO)N1CN(C2c3ccccc3CCc3ccccc32)n2ccc(=O)c(O)c2C1=O (centres unmarked) [Example 362],84
10,O=C1c2c(O)c(=O)ccn2N(C2c3ccccc3CCc3ccccc32)CN1CC(O)CO (centres unmarked) [Example 364],112
11,CC(C)C[C@H](CO)N1CN(C2c3ccccc3CSc3ccccc32)n2ccc(=O)c(O)c2C1=O (some centres unmarked) [Example 374],137
12,CC(C)C[C@@H](CO)N1CN(C2c3ccccc3CSc3ccccc32)n2ccc(=O)c(O)c2C1=O (some centres unmarked) [Example 377],24
13,CC(C)(C)[C@@H](CO)N1CN(C2c3ccccc3CSc3ccccc32)n2ccc(=O)c(O)c2C1=O (some centres unmarked) [Example 380],123
14,CC(C)(C)[C@H](CO)N1CN(C2c3ccccc3CSc3ccccc32)n2ccc(=O)c(O)c2C1=O (some centres unmarked) [Example 381],200
15,CC(C)N1CN(C2c3ccccc3COc3ccccc32)n2ccc(=O)c(O)c2C1=O (centres unmarked) [Example 391],264
16,COCCN1CN(C2c3ccccc3COc3ccc(F)cc32)n2ccc(=O)c(O)c2C1=O (centres unmarked) [Example 401],89
17,CC(C)N1CN(C2c3ccccc3COc3c(F)cccc32)n2ccc(=O)c(O)c2C1=O (centres unmarked) [Example 403],90
18,CC(N1CN(C2c3ccccc3COc3c(F)cccc32)n2ccc(=O)c(O)c2C1=O)C(F)(F)F (centres unmarked) [Example 406],119
19,CC(C)N1CN(C2c3ccc(Cl)cc3COc3ccccc32)n2ccc(=O)c(O)c2C1=O (centres unmarked) [Example 409],93
20,C[C@@H](N1CN(C2c3ccccc3COc3ccc(F)cc32)n2ccc(=O)c(O)c2C1=O)C(F)(F)F (some centres unmarked) [Example 410],265
21,C[C@H](N1CN([C@@H]2c3ccccc3CSc3ccccc32)n2ccc(=O)c(O)c2C1=O)C(F)(F)F [Example 415],285

row,SMILES,IC50 [nM]
1,C[C@H](N1CN([C@H]2c3ccccc3CSc3ccccc32)n2ccc(=O)c(O)c2C1=O)C(F)(F)F [Example 416],112
2,C[C@@H](N1CN([C@H]2c3ccccc3COc3c(F)cccc32)n2ccc(=O)c(O)c2C1=O)C(F)(F)F [Example 425],183
3,C[C@@H](N1CN([C@@H]2c3ccccc3SCc3cccc(Cl)c32)n2ccc(=O)c(O)c2C1=O)C(F)(F)F [Example 429],16
4,C[C@@H](N1CN([C@H]2c3ccccc3SCc3cccc(Cl)c32)n2ccc(=O)c(O)c2C1=O)C(F)(F)F [Example 430],168
5,C[C@H](N1CN([C@@H]2c3ccccc3SCc3cccc(Cl)c32)n2ccc(=O)c(O)c2C1=O)C(F)(F)F [Example 431],97
6,C[C@@H](N1CN([C@H]2c3ccc(C(F)(F)F)cc3CSc3ccccc32)n2ccc(=O)c(O)c2C1=O)C(F)(F)F [Example 432],155
7,C[C@H](N1CN([C@H]2c3ccccc3CSc3c(F)cccc32)n2ccc(=O)c(O)c2C1=O)C(F)(F)F [Example 453],186
8,C[C@@H](N1CN([C@H]2c3ccccc3CSc3ccc(Cl)cc32)n2ccc(=O)c(O)c2C1=O)C(F)(F)F [Example 455],25
9,C[C@H](N1CN([C@H]2c3ccccc3CSc3ccc(F)cc32)n2ccc(=O)c(O)c2C1=O)C(F)(F)F [Example 461],255
10,C[C@@H](N1CN([C@H]2c3cc(F)ccc3CSc3ccc(F)cc32)n2ccc(=O)c(O)c2C1=O)C(F)(F)F [Example 462],69
11,C[C@H](N1CN([C@H]2c3ccccc3CSc3ccc(Cl)cc32)n2ccc(=O)c(O)c2C1=O)C(F)(F)F [Example 475],164
12,CC(CN(C)C)N1CN(C2c3ccccc3CSc3ccccc32)n2ccc(=O)c(O)c2C1=O (centres unmarked) [Example 480],151
13,CC(CN(C)C)N1CN(C2c3ccccc3CSc3c(Cl)cccc32)n2ccc(=O)c(O)c2C1=O (centres unmarked) [Example 481],114
14,CC(CN1CCOCC1)N1CN(C2c3ccccc3CSc3ccccc32)n2ccc(=O)c(O)c2C1=O (centres unmarked) [Example 483],101
15,CCN1C(=O)c2c(O)c(=O)ccn2C(C2c3ccccc3CSc3ccccc32)N1CC (centres unmarked) [Example 502],42
16,O=C(O)c1cn2c(c(O)c1=O)C(=O)N1CCCCN1C2C(c1ccccc1)c1ccccc1 (centres unmarked) [Example 507],63
17,COCCCC1N(C(C)C)C(=O)c2c(O)c(=O)ccn2N1C1c2ccccc2CCc2ccccc21 (centres unmarked) [Example 522],39
18,CC(C)N1C(=O)c2c(O)c(=O)ccn2N(C2c3ccccc3CCc3ccccc32)C1CCN (centres unmarked) [Example 533],65
19,CC(C)N1C(=O)c2c(O)c(=O)ccn2N(C2c3ccccc3CCc3ccccc32)C1CCCN (centres unmarked) [Example 534],165
20,CC(C)N1C(=O)c2c(O)c(=O)ccn2N(C2c3ccccc3CCc3ccccc32)C1CCN(C)C (centres unmarked) [Example 537],152

# Same assay, conditions: RNP from A/WSN/33 virus, capped Cy3/BHQ2 30mer RNA substrate, 60 minutes at room temperature; read-out: CEN IC50
row,SMILES,IC50 [nM]
1,CC(C)N1CN(C2c3ccccc3CSc3ccc(Cl)cc32)n2ccc(=O)c(O)c2C1=O (centres unmarked) [Example 328],29
2,C[C@H](CO)N1CN(C2c3ccccc3CSc3ccccc32)n2ccc(=O)c(O)c2C1=O (some centres unmarked) [Example 373],65
3,O=C1c2c(O)c(=O)ccn2N(C2c3ccccc3CSc3c(Cl)cccc32)CN1CCO (centres unmarked) [Example 382],32
4,COCCN1CN(C2c3ccccc3COc3cc(F)ccc32)n2ccc(=O)c(O)c2C1=O (centres unmarked) [Example 397],55
5,COCCN1CN(C2c3cc(F)ccc3COc3cc(F)ccc32)n2ccc(=O)c(O)c2C1=O (centres unmarked) [Example 402],85
6,C[C@@H](N1CN([C@H]2c3cc(F)ccc3CSc3ccccc32)n2ccc(=O)c(O)c2C1=O)C(F)(F)F [Example 441],44
7,C[C@@H](N1CN([C@H]2c3ccccc3CSc3c(Cl)cccc32)n2ccc(=O)c(O)c2C1=O)C(F)(F)F [Example 450],23
8,C[C@@H](N1CN([C@@H]2c3ccccc3SCc3cccc(F)c32)n2ccc(=O)c(O)c2C1=O)C(F)(F)F [Example 456],32
9,C[C@H](N1CN([C@H]2c3ccc(F)cc3CSc3ccccc32)n2ccc(=O)c(O)c2C1=O)C(F)(F)F [Example 460],85
10,CSCC1N(C(C)C)C(=O)c2c(O)c(=O)ccn2N1C1c2ccccc2CCc2ccccc21 (centres unmarked) [Example 514],49
11,CCCC1N(C(C)C)C(=O)c2c(O)c(=O)ccn2N1C1c2ccccc2CCc2ccccc21 (centres unmarked) [Example 518],49
12,COCCCC1N(C(C)C)C(=O)c2c(O)c(=O)ccn2N1C1c2ccc(F)cc2CCc2cc(F)ccc21 (centres unmarked) [Example 526],44
